Assay [1] addresses T1, C3 (Homo sapiens, UniProt P01024).
T1 construct: from tissue; host or cells: blood samples of healthy human volunteers
The assay can be described thus: C3 levels (turbidimetric immunoassay) after single IV infusion. The assay is classed as in vivo. To be noted: post-dosing start. The protocol:
C3: C3 levels were measured on the BindingSite SPA Plus. The SPA plus measures protein concentration by a turbidimetric immunoassay. The specimen to be tested is mixed with a fixed concentration of excess polyclonal antibodies to the analyte of interest. This leads to the formation of large antigen-antibody immune complexes. The specimen is diluted to reach a point where the antigen concentration is near the equivalent point with the antibody. When light is passed through the suspension, a portion is transmitted and focused onto a photodiode by an optical lens system. The amount of transmitted light is indirectly proportional to the specific protein concentration in the sample. Concentrations are automatically calculated by reference to a calibration curve. The amount of analyte (C3 which is causing agglutination) in the sample can therefore be easily determined. C3 concentrations are expressed as g/L.
C3 Calculations: For turbidimetric assays, the change in the amount of light absorbed (inverse of amount transmitted) is dependent on the amount of agglutination between the analyte and the specific antibodies. Thereby, the amount of analyte (C3 which is causing agglutination) in the sample is determined.

Amino acid sequences for entries named in this document (tags omitted). Residues count along the entry.
UniProt P01024, 23-667 limits assumed: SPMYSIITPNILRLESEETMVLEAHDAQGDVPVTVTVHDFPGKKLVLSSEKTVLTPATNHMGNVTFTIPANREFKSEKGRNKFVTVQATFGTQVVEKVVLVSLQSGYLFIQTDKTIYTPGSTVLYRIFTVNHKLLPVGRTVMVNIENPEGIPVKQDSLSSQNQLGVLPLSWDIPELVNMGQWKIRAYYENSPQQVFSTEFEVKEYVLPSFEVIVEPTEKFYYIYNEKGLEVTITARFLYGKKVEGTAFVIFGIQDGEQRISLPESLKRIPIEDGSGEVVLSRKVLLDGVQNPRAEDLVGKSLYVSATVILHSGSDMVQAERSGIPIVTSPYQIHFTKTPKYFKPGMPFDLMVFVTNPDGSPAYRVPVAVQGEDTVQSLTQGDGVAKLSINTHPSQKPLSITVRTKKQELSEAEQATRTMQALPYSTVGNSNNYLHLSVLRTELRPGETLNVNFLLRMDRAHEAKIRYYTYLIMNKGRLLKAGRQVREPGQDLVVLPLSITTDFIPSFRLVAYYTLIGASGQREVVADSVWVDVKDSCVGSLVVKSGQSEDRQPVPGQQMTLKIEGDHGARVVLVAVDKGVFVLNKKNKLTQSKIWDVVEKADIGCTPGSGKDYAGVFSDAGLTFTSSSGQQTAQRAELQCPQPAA
UniProt P01024, 672-1663 partner limits assumed: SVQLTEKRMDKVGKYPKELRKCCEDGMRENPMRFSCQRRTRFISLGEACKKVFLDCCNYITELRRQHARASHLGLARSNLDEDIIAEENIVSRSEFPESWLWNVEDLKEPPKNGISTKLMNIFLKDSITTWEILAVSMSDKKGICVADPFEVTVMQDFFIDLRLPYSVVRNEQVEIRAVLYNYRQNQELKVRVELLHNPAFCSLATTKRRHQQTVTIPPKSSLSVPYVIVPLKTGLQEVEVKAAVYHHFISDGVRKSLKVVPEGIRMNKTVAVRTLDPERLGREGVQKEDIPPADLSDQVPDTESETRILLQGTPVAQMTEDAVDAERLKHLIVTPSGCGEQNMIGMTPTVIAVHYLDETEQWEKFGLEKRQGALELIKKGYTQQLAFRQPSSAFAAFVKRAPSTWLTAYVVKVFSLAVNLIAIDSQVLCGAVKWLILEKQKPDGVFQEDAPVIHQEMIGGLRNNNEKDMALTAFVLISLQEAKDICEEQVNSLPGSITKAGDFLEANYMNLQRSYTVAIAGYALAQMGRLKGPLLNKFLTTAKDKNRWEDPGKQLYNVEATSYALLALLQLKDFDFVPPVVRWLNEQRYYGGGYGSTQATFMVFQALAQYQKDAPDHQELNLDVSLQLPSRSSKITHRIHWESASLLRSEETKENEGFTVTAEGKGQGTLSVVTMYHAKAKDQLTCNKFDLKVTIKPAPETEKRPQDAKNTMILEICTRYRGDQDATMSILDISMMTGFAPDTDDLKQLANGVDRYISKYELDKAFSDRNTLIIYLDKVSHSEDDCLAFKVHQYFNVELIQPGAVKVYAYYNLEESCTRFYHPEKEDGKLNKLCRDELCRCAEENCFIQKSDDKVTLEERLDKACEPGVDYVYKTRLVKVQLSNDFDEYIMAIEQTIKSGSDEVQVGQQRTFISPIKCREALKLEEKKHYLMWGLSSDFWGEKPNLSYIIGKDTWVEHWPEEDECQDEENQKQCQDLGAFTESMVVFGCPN

Assay [2] has as its system alternative complement pathway hemolytic activity (AH50). The assay can be described thus: AH50 hemolytic assay on serum after single IV infusion. It is filed as in vivo, human. Conditions: single IV 2300 mg. The protocol:
AH50 Method: AH50 was measured by a hemolytic assay based on lysis of rabbit red blood cells (RA) due to activation of complement on the cell's surface. The AH50 (50% Alternative Complement Hemolytic dose) was determined for each component by adding a limiting amount of the test serum or plasma. For this assay, the buffers are created such as to block activity of the classical pathway, which requires calcium. Serial dilutions of the test specimen were mixed with equal volumes of the RA. This functional assay measured the amount of hemoglobin that was released when the target cells were lysed by the action of complement, and from this, the percentage of the cells that had been lysed was calculated. The major peak of the hemoglobin spectrum was read at 415 nm wavelength. For each assay the run was verified with a five-point standard and five points of characterized QC control.
AH50 Calculations: For verifiable continuity between assay runs, the AH50 assay was performed using a human serum standard with known AH50 activity. Serial dilutions of the standard were used to establish its 50% lysis point (the point where the best-fit line formed from the percent lysis (Y) versus the reciprocal of the dilution of serum (X) reaches 50%). […] Each specimen from the study was diluted in the same manner and individual 50% lysis points determined by linear regression.

Turning to “Poly(oxy-1,2-ethanediyl), α-hydro-ω-hydroxy-, 15,15′-diester with N-acetyl-L-isoleucyl-L-cysteinyl-L-valyl-1-methyl-L-tryptophyl-L-glutaminyl-L-α-aspartyl-L-tryptophylglycyl-L-alanyl-L-histidyl-L-arginyl-L-cysteinyl-L-threonyl-2-[2-(2-aminoethoxy)ethoxy]acetyl-N^6-carboxy-L-lysinamide cyclic (2-->12)-(disulfide) [PEG]”, the “time of peak mean C3” value in assay [1] (all PEG groups except 600 mg) is 168 h; in assay [1] (single IV 600 mg) it was 120 h. In assay [2], the “time for which decrease in mean AH50 was maintained” value was not below 168 h.

Values taken from patent US20260069653A1, “COMPLEMENT INHIBITOR DOSING REGIMENS” (Apellis Pharmaceuticals, Inc., priority 2021, published 2026).
